In patent US7687508B2, “Cyclic derivatives as modulators of chemokine receptor activity” (Bristol-Myers Squibb Company, priority 2006, dated 2010):

Biological target: T1, human CCR2 (Homo sapiens, UniProt P41597)
T1 sequence (P41597 1-360 isoform P41597-2): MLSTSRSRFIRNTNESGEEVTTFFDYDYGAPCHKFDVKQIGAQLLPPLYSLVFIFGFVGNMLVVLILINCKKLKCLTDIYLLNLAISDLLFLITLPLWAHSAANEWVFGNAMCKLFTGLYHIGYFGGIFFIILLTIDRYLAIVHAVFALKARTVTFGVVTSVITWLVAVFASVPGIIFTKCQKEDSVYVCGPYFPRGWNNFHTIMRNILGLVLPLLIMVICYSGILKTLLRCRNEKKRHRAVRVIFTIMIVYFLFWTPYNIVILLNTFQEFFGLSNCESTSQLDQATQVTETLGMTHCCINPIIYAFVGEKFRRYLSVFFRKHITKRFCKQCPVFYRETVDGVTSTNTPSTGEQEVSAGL
Assay: CCR2 chemotaxis (MCP-1-induced, THP-1 cells)
Type: cell-based
Set-up: hPBMCs were isolated from human leukopak (Biological Specialty Inc.); endogenous in cells; host or cells: human peripheral blood mononuclear cells from leukopak (Biological Specialty Inc.)
Method: The human CCR2 chemotaxis assay was conducted with the human monocytic cell line, THP-1. THP-1 cells were first labeled with the fluorescent dye Calcein-AM in phenol red-free, BSA-free RPMI-1640 (pH 7.4) at 37° C. for 30 minutes with gentle mixing every 15 minutes. The labeled cells were then washed and re-suspended at 1×10^5/ml in chemotaxis buffer (phenol red-free RPMI-1640, 0.1% BSA, pH 7.4). The test compound was diluted in chemotaxis buffer such that the final assay concentration ranged from 0.01 nM to 1 μM. […] To perform the assay, an equal volume of test compound dilutions was mixed with an equal volume of labeled THP-1 cells (Mixture 1), and an equal volume of test compound dilutions was mixed with an equal volume of diluted MCP-1 ligand (Mixture 2). Both mixtures were incubated independently at 37° C. for 10 minutes followed by gentle mixing. MCP-1-induced chemotaxis was then measured in a chemotaxis plate (Becton Dickinson) by placing 50 μl of Mixture 1 in the top chamber and 225 μl of Mixture 2 in the bottom chamber. The plate was covered with a lid and incubated at 37° C. for 30 minutes. 30 minutes later, the plate was read on a Cytofluor. All conditions were tested in duplicate. […] The inhibition achieved by graded concentrations of test compound was calculated as a percentage of the compound-free MCP-1 control.

**Q.** With `CN[C@@H]1CC[C@H](N2CC[C@H](Nc3ncnc4ccc(C(F)(F)F)cc34)C2=O)[C@H](NC(C)=O)C1` [Example 3, N-((1R,2S,5R)-5-(methylamino)-2-((3S)-2-oxo-3-((6-(trifluoromethyl)-4-quinazolinyl)amino)-1-pyrrolidinyl)cyclohexyl)acetamide] as the compound, how does the IC50 read?
**A.** The IC50 was 2.2 ± 1.59 nM.
